Literature values as cited in article PMC4516925, “Three Peptide Modulators of the Human Voltage-Gated Sodium Channel 1.7, an Important Analgesic Target, from the Venom of an Australian Tarantula” (Toxins, 2015).
pIC50: −log10 of the molar value.

Amino acid sequences for entries named in this document (tags omitted).
UniProt Q15858, whole entry: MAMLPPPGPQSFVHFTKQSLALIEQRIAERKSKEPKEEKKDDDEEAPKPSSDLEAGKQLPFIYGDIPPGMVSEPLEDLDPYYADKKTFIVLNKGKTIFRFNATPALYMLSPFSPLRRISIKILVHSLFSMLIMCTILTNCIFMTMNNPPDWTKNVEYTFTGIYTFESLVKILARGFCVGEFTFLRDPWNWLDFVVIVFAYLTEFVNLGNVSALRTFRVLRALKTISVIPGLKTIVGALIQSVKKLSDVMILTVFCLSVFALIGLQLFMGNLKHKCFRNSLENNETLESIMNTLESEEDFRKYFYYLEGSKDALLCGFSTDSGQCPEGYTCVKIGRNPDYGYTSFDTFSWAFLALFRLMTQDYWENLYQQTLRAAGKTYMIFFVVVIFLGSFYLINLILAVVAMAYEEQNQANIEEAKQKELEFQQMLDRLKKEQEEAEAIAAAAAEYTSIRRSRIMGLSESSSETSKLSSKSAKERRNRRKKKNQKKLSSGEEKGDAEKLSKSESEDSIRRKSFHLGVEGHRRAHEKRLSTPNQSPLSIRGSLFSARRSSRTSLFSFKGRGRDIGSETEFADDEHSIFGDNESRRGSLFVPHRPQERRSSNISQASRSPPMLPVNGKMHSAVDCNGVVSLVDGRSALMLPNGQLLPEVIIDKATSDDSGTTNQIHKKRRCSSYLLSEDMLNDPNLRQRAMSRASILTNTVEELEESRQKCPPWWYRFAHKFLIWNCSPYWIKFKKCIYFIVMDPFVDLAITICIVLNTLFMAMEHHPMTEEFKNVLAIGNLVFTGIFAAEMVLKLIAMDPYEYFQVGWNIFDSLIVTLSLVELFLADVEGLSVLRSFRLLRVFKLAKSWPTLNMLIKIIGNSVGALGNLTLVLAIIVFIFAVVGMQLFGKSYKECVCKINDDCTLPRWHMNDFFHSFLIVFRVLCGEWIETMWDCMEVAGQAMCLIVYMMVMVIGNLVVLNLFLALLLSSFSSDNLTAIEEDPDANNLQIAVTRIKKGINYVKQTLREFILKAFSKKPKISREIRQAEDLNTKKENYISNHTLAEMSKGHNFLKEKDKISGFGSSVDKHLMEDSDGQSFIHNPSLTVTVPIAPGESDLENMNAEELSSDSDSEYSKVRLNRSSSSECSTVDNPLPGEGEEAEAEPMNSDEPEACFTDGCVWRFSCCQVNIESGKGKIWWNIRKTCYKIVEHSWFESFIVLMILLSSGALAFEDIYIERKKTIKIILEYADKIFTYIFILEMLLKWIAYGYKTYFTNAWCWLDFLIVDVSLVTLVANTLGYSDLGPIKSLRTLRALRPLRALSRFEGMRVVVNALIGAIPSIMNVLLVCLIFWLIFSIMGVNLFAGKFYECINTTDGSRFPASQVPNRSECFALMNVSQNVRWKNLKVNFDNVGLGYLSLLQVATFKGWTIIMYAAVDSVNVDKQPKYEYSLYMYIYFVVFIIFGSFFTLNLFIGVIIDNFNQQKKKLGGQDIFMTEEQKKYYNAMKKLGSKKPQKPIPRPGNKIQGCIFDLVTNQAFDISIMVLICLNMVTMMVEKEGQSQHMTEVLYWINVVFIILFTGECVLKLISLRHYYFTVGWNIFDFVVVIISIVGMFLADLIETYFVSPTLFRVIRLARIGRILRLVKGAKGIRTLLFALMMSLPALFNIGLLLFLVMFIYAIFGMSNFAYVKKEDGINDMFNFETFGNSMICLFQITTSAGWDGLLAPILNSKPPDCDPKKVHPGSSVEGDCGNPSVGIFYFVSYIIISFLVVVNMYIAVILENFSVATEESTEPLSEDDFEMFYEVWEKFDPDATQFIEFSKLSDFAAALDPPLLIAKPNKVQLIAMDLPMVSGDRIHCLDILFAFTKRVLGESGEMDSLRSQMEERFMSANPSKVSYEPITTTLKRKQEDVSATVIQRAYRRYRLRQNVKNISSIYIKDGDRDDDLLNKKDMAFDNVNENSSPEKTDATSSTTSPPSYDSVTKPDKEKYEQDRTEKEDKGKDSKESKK

Target: T1, hNaV1.7 (Homo sapiens, UniProt Q15858)
T1 construct: expressed in transfected cells; host or cells: Xenopus oocytes (cRNA injection)
Settings: cited from earlier work

Question: With “ProTx-II: most potent blocker of hNaV1.7 within NaSpTx family 3” as the substance, how does the pIC50 read?
Answer: Its pIC50 is 9.52.
